Laboratory results taken from US12653898B2, “Polyoxyethylene derivatives and conjugates thereof” (NATIONAL UNIVERSITY CORPORATION HOKKAIDO UNIVERSITY, priority 2023, dated 2026).

conditions: PBS, 37° C., dialysis cassette 10,000 MWCO; Leu-Gly-Gly adduct amount by 1H-NMR, exponential approximation

Substance	degradation half-life (t1/2) [h]
mPEG (10k)-BzTA4-LGG [compound (39)]	110
mPEG (20k)-BzTA4-LGG [compound (38)]	98.4
mPEG (20k)-PhTA4 (4CB)-LGG [compound (40)]	154
mPEG (40k)-PhTA4 (4CB2MO)-LGG [compound (42)]	122
mPEG (40k)-PhTA4 (4CB)-LGG [compound (41)]	149
